From patent US20230103352A1 (ONCOIMMUNE, published 2023)

Molecular target: T1, control Fc
T1 construct: also called control IgG Fc; human IgG1 Fc
Experiment: Biacore (SPR): control Fc in place of CD24Fc, Siglec-10Fc as analyte; value printed under the KD line, no curve is drawn for the control
Source text: To measure the interaction between CD24Fc and Siglec 10, we immobilized CD24Fc onto a CHIP and used Biacore to measure the binding of different concentrations of Siglec-10Fc. […] The interaction between CD24Fc and HMGB1 was confirmed by pull down experiments using CD24Fc-bound protein G beads followed by Western blot with either anti-IgG or anti-HMGB1. […] To determine whether CD24Fc is an agonist of Siglec G, the mouse counterpart of human Siglec 10, we stimulated CD24^{-/-} spleen cells with CD24Fc, control Fc or vehicle (PBS) control for 30 minutes. Siglec G was then immunoprecipitated and probed with anti-phospho-tyrosine or anti-SHP-1.

- Kd: 16.2 µM
B1: Siglec-10Fc (Fc fusion, human, UniProt Q96LC7 17-546, looked up)
chain: MDGRFWIRVQESVMVPEGLCISVPCSFSYPRQDWTGSTPAYGYWFKAVTETTKGAPVATNHQSREVEMSTRGRFQLTGDPAKGNCSLVIRDAQMQDESQYFFRVERGSYVRYNFMNDGFFLKVTALTQKPDVYIPETLEPGQPVTVICVFNWAFEECPPPSFSWTGAALSSQGTKPTTSHFSVLSFTPRPQDHNTDLTCHVDFSRKGVSAQRTVRLRVAYAPRDLVISISRDNTPALEPQPQGNVPYLEAQKGQFLRLLCAADSQPPATLSWVLQNRVLSSSHPWGPRPLGLELPGVKAGDSGRYTCRAENRLGSQQRALDLSVQYPPENLRVMVSQANRTVLENLGNGTSLPVLEGQSLCLVCVTHSSPPARLSWTQRGQVLSPSQPSDPGVLELPRVQVEHEGEFTCHARHPLGSQHVSLSLSVHYSPKLLGPSCSWEAEGLHCSCSSQASPAPSLRWWLGEELLEGNSSQDSFEVTPSSAGPWANSSLSLHGGLSSGLRLRCEAWNVHGAQSGSILQLPDKKGLIST
notes: It was the analyte in the Biacore assay; not shown: Fc part of Siglec-10Fc
